Molecular target: human CXCR4 (Homo sapiens, UniProt P61073)
Experiment: cell-based
Format: binding
Set-up: Jurkat cells that endogenously express the CXCR4 receptor; endogenous in cells; host or cells: Jurkat (ATCC)
Method: For receptor binding assays cells were resuspended in PBS/0.2% BSA. […] Cell bound radioactivity was determined by using a gamma counter.

By UniProt entry, the sequences of proteins in these tests, tags left out.
UniProt P61073, whole entry: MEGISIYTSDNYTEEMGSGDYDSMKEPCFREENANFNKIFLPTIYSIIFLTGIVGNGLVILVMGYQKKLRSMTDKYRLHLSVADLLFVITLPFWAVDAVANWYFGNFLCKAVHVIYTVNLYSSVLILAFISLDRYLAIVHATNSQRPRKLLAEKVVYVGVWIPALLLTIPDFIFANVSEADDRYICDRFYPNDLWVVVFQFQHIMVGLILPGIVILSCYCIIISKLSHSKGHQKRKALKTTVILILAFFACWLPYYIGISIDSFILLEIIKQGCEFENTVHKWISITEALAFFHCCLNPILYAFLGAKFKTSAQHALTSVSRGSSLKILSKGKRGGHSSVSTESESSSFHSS

SMILES	IC50 [nM]
CN1C(=O)[C@H](CCCNC(=N)N)NC(=O)[C@H](CCCNC(=N)N)N(C)C(=O)[C@@H](Cc2ccc(O)cc2)NC(=O)CNC(=O)[C@@H]1Cc1ccc2ccccc2c1 [OD20, cyc[Arg-(Me)Nal-Gly-D-Tyr-(Me)Arg]]	100 to 200
CN1C(=O)[C@@H](Cc2ccc(O)cc2)NC(=O)CNC(=O)[C@H](Cc2ccc3ccccc3c2)NC(=O)[C@H](CCCNC(=N)N)N(C)C(=O)[C@@H]1CCCNC(=N)N [OD21, cyc[(Me)Arg-Nal-Gly-D-Tyr-(Me)Arg]]	> 1000
NCCC[C@@H]1NC(=O)[C@H](CCCN)NC(=O)[C@@H](Cc2ccc(O)cc2)NC(=O)CNC(=O)[C@H](Cc2ccc3ccccc3c2)NC1=O [OD23, cyc[Nal-Gly-D-Tyr-Orn-Orn]]	> 1000
N=C(N)NCCC[C@@H]1NC(=O)[C@@H](Cc2ccc(O)cc2)NC(=O)CNC(=O)[C@H](Cc2ccc3ccccc3c2)NC(=O)[C@H](CCCN)NC1=O [OD24, cyc[Nal-Gly-D-Tyr-Arg-Orn]]	~1000
NC(=O)NCCC[C@@H]1NC(=O)[C@H](CCCNC(N)=O)NC(=O)[C@@H](Cc2ccc(O)cc2)NC(=O)CNC(=O)[C@H](Cc2ccc3ccccc3c2)NC1=O [OD26, cyc[Nal-Gly-D-Tyr-Cit-Cit]]	> 1000

Source: US8628750B2, “Cancer imaging and treatment” (Technische Universitat Munchen, priority 2006, dated 2014)
